# Source: ChEMBL document CHEMBL1201862, “PubChem BioAssay data set” (2004)
# The list shows a part of the results. For most assays here, no stated cut-off is given here; in the data, active = GI50 up to about 1.1 µM and inactive = higher. These assays gave more results; the selection is not random.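 1) Cells in 96-well plates. 2) Compound, 48 h, 5 concentrations. 3) Linear interpolation between surrounding doses. 4) Unreached endpoint = highest concentration. At the GI50, growth is halved.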 For part of these data: Entries with a potency or affinity are not part of this list.
# Assays:
# Assay in all cases: NCI tumour cell line growth inhibition, 48 h
# [1] = tested on: 786-0
# [2] = tested on: A498
# [3] = tested on: A549
# [4] = tested on: ACHN
# [5] = tested on: BT-549
# [6] = tested on: CAKI-1
# [7] = tested on: CCRF-CEM
# [8] = tested on: COLO 205
# [9] = tested on: DU-145
# [10] = tested on: EKVX
# [11] = tested on: HCC 2998
# [12] = tested on: HCT-116
# [13] = tested on: HCT-15
# [14] = tested on: HL-60
# [15] = tested on: HOP-62
# [16] = tested on: HOP-92
# [17] = tested on: DLD-1
# [18] = tested on: DMS-114
# [19] = tested on: DMS-273
SMILES,GI50 [1],GI50 [2],GI50 [3],GI50 [4],GI50 [5],GI50 [6],GI50 [7],GI50 [8],GI50 [9],GI50 [10],GI50 [11],GI50 [12],GI50 [13],GI50 [14],GI50 [15],GI50 [16],GI50 [17],GI50 [18],GI50 [19]
Cc1ccc2ccc3ccc4ccccc4c3c2c1.O=C1c2cc([N+](=O)[O-])ccc2-c2c1cc([N+](=O)[O-])cc2[N+](=O)[O-],inactive: 1.24 µM,inactive: 13.6 µM,inactive: 17.9 µM,inactive: 1.76 µM,inactive: 1.21 µM,inactive: 2.55 µM,active: 1 µM,inactive: 9.51 µM,active: 1.09 µM,inactive: 8.02 µM,active: 1.03 µM,active: 1.04 µM,active: 0.871 µM,active: 1.06 µM,inactive: 6.03 µM,inactive: 10.8 µM,–,–,–
CC1=CC2OC3CC(OC(=O)/C=C/C=C/C(OCCC4=CC(=O)OC4)C(C)O)C(C)(C2(CO)CC1)C31CO1 (stereo not drawn),–,–,–,–,–,–,–,–,–,–,–,–,–,inactive: 1.98 µM,–,–,–,–,–
O=C1Nc2ccc([N+](=O)[O-])cc2/C1=N/Nc1ccc([N+](=O)[O-])cc1[N+](=O)[O-],inactive: 17.7 µM,inactive: 14 µM,inactive: 18.7 µM,inactive: 28 µM,–,inactive: 27.2 µM,inactive: 25.5 µM,inactive: 23.2 µM,–,inactive: 37.6 µM,inactive: 10 µM,–,inactive: 23.7 µM,–,inactive: 18.2 µM,inactive: 19.3 µM,inactive: 39.2 µM,inactive: 29 µM,inactive: 18 µM
O[C@@H]1CCN2CCC[C@H]12,inactive: > 100 µM,inactive: > 100 µM,inactive: > 100 µM,inactive: > 100 µM,inactive: > 100 µM,inactive: > 100 µM,inactive: > 100 µM,inactive: > 100 µM,inactive: > 100 µM,inactive: > 100 µM,inactive: > 100 µM,inactive: > 100 µM,inactive: > 100 µM,inactive: > 100 µM,inactive: > 100 µM,inactive: > 100 µM,–,–,–
Cc1ccc([N+](=O)[O-])c(C[N+](C)(CCCl)CCCl)c1,inactive: 16.9 µM,inactive: 21.5 µM,inactive: 15.4 µM,inactive: 6.1 µM,inactive: 18.1 µM,inactive: 5.71 µM,inactive: 20.9 µM,inactive: 12.5 µM,inactive: 6.67 µM,inactive: 22.3 µM,–,inactive: 20.9 µM,inactive: 13.7 µM,inactive: 17.2 µM,inactive: 17.7 µM,inactive: 20 µM,–,–,–
Cn1c(=O)c([N+](=O)[O-])c(N=[N+]=[N-])c2ccccc21,–,–,–,–,–,–,–,–,–,–,–,–,–,–,–,inactive: 1.91 µM,–,–,–
C[S+](N)(=O)CCC(N)P(=O)(O)O (stereo not drawn),–,inactive: > 100 µM,inactive: > 100 µM,inactive: > 100 µM,–,inactive: > 100 µM,inactive: > 100 µM,inactive: > 100 µM,inactive: > 100 µM,–,inactive: > 100 µM,inactive: > 100 µM,inactive: > 100 µM,inactive: > 100 µM,inactive: > 100 µM,inactive: > 100 µM,–,–,–
ClCCSc1c2ccccc2nc2ccccc12,inactive: 2.59 µM,inactive: 16.9 µM,inactive: 23.6 µM,inactive: 7.35 µM,inactive: 18.8 µM,inactive: 2.64 µM,inactive: 2.77 µM,inactive: 4.73 µM,inactive: 3.84 µM,inactive: 14.8 µM,inactive: 20.8 µM,inactive: 5.16 µM,inactive: 8.67 µM,inactive: 4.11 µM,inactive: 20.2 µM,inactive: 4.39 µM,–,–,–
COc1ccc([N+](=O)[O-])c(C[N+](C)(CCCl)CCCl)c1,inactive: > 100 µM,inactive: > 100 µM,inactive: > 100 µM,inactive: 52 µM,inactive: > 100 µM,inactive: 33 µM,inactive: 84.1 µM,inactive: > 100 µM,inactive: > 100 µM,inactive: > 100 µM,–,inactive: > 100 µM,inactive: > 100 µM,inactive: 70.3 µM,inactive: > 100 µM,inactive: > 100 µM,–,–,–
CCCCCCCCCCCCCNCC(C)O (stereo not drawn),inactive: 19.4 µM,inactive: 15.1 µM,inactive: 14.9 µM,inactive: 14.2 µM,inactive: 13.1 µM,inactive: 10.2 µM,inactive: 4.89 µM,inactive: 1.25 µM,inactive: 15.3 µM,inactive: 10.2 µM,inactive: 3.05 µM,inactive: 13.5 µM,inactive: 12.8 µM,inactive: 17.4 µM,inactive: 22.8 µM,inactive: 2.52 µM,–,–,–
O[C@H]1[C@@H](O)CC2CCN3Cc4cc5c(cc4[C@H]1C23)OCO5 (stereo partly drawn),inactive: > 100 µM,–,inactive: > 100 µM,inactive: > 100 µM,–,–,inactive: > 100 µM,inactive: > 100 µM,–,inactive: > 100 µM,inactive: > 100 µM,inactive: > 100 µM,inactive: > 100 µM,inactive: > 100 µM,inactive: > 100 µM,–,inactive: > 100 µM,inactive: > 100 µM,inactive: > 100 µM
O=[N+]([O-])c1ncn(F)c1[N+](=O)[O-],inactive: > 100 µM,inactive: > 100 µM,inactive: > 100 µM,inactive: 94.6 µM,–,inactive: 41.2 µM,inactive: 60.8 µM,inactive: > 100 µM,inactive: > 100 µM,inactive: > 100 µM,inactive: 10 µM,inactive: > 100 µM,inactive: 41.7 µM,inactive: 22 µM,–,inactive: > 100 µM,–,–,–
O=C1CCN2CCCC12 (stereo not drawn),inactive: > 100 µM,inactive: > 100 µM,inactive: > 100 µM,inactive: > 100 µM,inactive: > 100 µM,inactive: > 100 µM,inactive: > 100 µM,inactive: > 100 µM,inactive: > 100 µM,inactive: > 100 µM,inactive: > 100 µM,inactive: > 100 µM,inactive: > 100 µM,inactive: > 100 µM,inactive: > 100 µM,inactive: 37.3 µM,–,–,–
